Laboratory results taken from patent EP1439177B1, “Antiviral activity and resolution of 2-hydroxymethyl-5-(5-fluorocytosin-1-yl)-1,3-oxathiolane” (Emory University, priority 1991, dated 1992).
Values joined by “and” are separate entries in the source; they are usually repeats but may differ in a detail not shown here. Identical values can stand only once. Like-named read-outs stand apart in the source and are kept apart here.

Experiments:
[1] = individual monkeys RUh, RMi, RJd
in vivo = settings: rhesus monkey, 33.3 mg/kg

## Nc1nc(=O)n([C@@H]2CS[C@H](CO)O2)cc1F (racemic) [(±)-FTC, (±)-β-D.L-2-hydroxymethyl-5-(5-fluorocytosin-1-yl)-1,3-oxathiolane]
[1]; I.V. 33.3 mg/kg
  t1/2: 1.22 h and 1.47 h
[1]; P.O. 33.3 mg/kg
  t1/2: 1.08 h and 1.47 h
In vivo; in vivo, iv, t1/2, I.V. 33.3 mg/kg, Mean of three monkeys
  half-life: 1.32 h
In vivo; in vivo, iv, t1/2, I.V. 33.3 mg/kg, individual monkeys RUh, RMi, RJd
  half-life: 1.28 h
In vivo; in vivo, po, t1/2, P.O. 33.3 mg/kg, Mean of three monkeys
  half-life: 1.38 h
In vivo; in vivo, po, t1/2, P.O. 33.3 mg/kg, individual monkeys RUh, RMi, RJd
  half-life: 1.58 h
In vivo; plasma, plasma terminal half life, rhesus monkeys, mean of oral and I.V. administration
  half-life: ~1.34 h
